Reference: PubChem BioAssay AID540267 (National Center for Advancing Translational Sciences (NCATS), 2011)
The list shows a part of the results, in another mix than the full data. Calls of active or inactive are those of the source. No stated cut-off is given here; in the data, active means activity change below about -80%; inconclusive means between about -30% and that limit; inactive means weaker than that.

Experiment: Small Molecules that selectively kill Giardia lamblia: qHTS;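 further: parasites exposed to compound for two days anaerobically before the ATP read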
Conditions: Giardia lamblia trophozoite viability; at 7.66 µM; active compounds read low
Excerpt: Giardia lamblia is a human pathogen afflicting impoverished nations, and the most common cause of outbreaks of diarrhea in the United States. Giardia has been classified by the CDC as a category B bioterrorism organism. The favored anti giardiasis drugs in the US are metronidazole or tinidazole, compounds that have undesirable side effects. Moreover, increasing resistance to drug regimes and recurrence are a concern. It is thus clear that alternative drug treatments are needed.
In a collaboration between the University of Maryland, College Park and the NIH Chemical Genomics Center, a bioluminescence Giardia viability assay based on the trophozoites' ATP content was developed. This assay is suitable for high throughput screening, and miniaturized the assay for compound screening in 1536-well plates. The goal of the project is to screen the Molecular Libraries Small Molecule Repository (MLSMR) for compounds that selectively kill Giardia trophozoites.
NIH Chemical Genomics Center [NCGC]
NIH Molecular Libraries Probe Centers Network [MLPCN]
Assay Submitter (PI): Osnat Herzberg, University of Maryland, College Park, MD.
1. Dispense 2 ul/well media
2. Dispense 23 nl/well compounds
3. Dispense 4 ul/well Giardia trophozoites at a concentration of 100 cells/well
4. Incubate 48 hrs at 37 deg C anaerobically
5. Dispense 4 ul/well ATPLite 1-Step Luminescence assay kit
6. Incubate 15-30 min at room temperature
7. Read luminescence signal on ViewLux plate reader
On the % scale 0 is the no-effect control and ±100 the full control effect.

**Q.** For Cc1ccc(OCC(=O)OC2CN3CCC2CC3)cc1 (centres undefined), which activity change is on record?
**A.** The activity change was inactive: 0.285%.

**Q.** With CC1CCC(C(C)C)C(OP(=O)(Nc2ccccn2)c2ccccc2)C1 (centres undefined) as the compound, how does the activity change read?
**A.** Its activity change is inactive: 11.5%.

**Q.** With Cc1ccc(C(=O)OC2CN3CCC2CC3)cc1 (centres undefined) as the compound, how does the activity change read?
**A.** The activity change was inactive: 8.56%.

**Q.** Which activity change does the source give for Cc1nn(-c2ccccc2)c2c1P(=O)(N1CCOCC1)N(C)C(c1ccccc1)=N2 (centres undefined) here?
**A.** The activity change was inactive: -9.21%.

**Q.** With CCCC1OP(=O)(Nc2ccccc2)OCC1CC (centres undefined) as the compound, how does the activity change read?
**A.** The activity change was inactive: -4.18%.

**Q.** Which activity change does the source give for O=C(/C=C/c1ccccc1)OC1CN2CCC1CC2 (centres undefined) here?
**A.** The activity change was inactive: 13.1%.

**Q.** Which activity change does the source give for CN(C)C1(CNC(=O)c2ccc(S(C)(=O)=O)cc2)CCCCC1 here?
**A.** The activity change was inactive: 7.79%.

**Q.** For COc1ccccc1CNC(=O)COC(=O)C(O)(c1ccccc1)c1ccccc1, which activity change is on record?
**A.** The activity change was inactive: -21.2%.

**Q.** For CC1(CBr)Cn2c(nc3ccccc3c2=O)S1 (centres undefined), which activity change is on record?
**A.** The activity change was inactive: 5.64%.

**Q.** For CC(C)/C=N\N=C(\N)N[N+](=O)[O-], which activity change is on record?
**A.** The activity change was inactive: 1.95%.

**Q.** For CN(C(=O)Cc1ccc(Cl)c(Cl)c1)[C@@H]1CCCC[C@H]1N1CCCC1, which activity change is on record?
**A.** Its activity change is inactive: -2.48%.

**Q.** With CN(CCCl)Cc1cc(Cl)c(NC2=NCCN2)c(Cl)c1 as the compound, how does the activity change read?
**A.** Its activity change is inactive: -18.2%.

**Q.** With CCOP(=O)(Nc1ccc(C)cn1)OCC as the compound, how does the activity change read?
**A.** Its activity change is inactive: -13.6%.

**Q.** With CCOP(=O)(NC(=NC(C)c1ccccc1)NC(C)c1ccccc1)OCC (centres undefined) as the compound, how does the activity change read?
**A.** Its activity change is inactive: -29.4%.

**Q.** Which activity change does the source give for O=P1(Nc2ccccn2)COc2ccccc2OC1 here?
**A.** The activity change was inactive: -4.09%.

**Q.** Which activity change does the source give for CCC1=CC2Cc3nc4ccc(Cl)cc4c(N)c3C(C1)C2 (centres undefined) here?
**A.** Its activity change is inactive: 4.43%.

**Q.** Which activity change does the source give for CC(C)(C)C(=O)NC(Sc1ncccn1)C(Cl)(Cl)Cl (centres undefined) here?
**A.** Its activity change is inactive: -15.9%.

**Q.** With Clc1n[nH]nc1-c1nn[nH][15n]1 as the compound, how does the activity change read?
**A.** The activity change was inactive: 5.23%.

**Q.** With CCOC(=O)c1ccc(NC(=O)C(C)(CCl)SC)cc1 (centres undefined) as the compound, how does the activity change read?
**A.** The activity change was inactive: 25.1%.

**Q.** For O=C(OC1CN2CCC1CC2)c1cccc([N+](=O)[O-])c1 (centres undefined), which activity change is on record?
**A.** Its activity change is inactive: 2.47%.

**Q.** For CCOP(=O)(Nc1cccc2cccnc12)OCC, which activity change is on record?
**A.** Its activity change is inactive: 14.1%.

**Q.** Which activity change does the source give for CCC(C)N(CC(C)C)C(=S)SC(NC(C)=O)C(Cl)(Cl)Cl (centres undefined) here?
**A.** The activity change was inactive: -3.55%.

**Q.** With COP1(=S)c2c(C)nn(CCC#N)c2N=C(c2ccc(F)cc2)N1C (centres undefined) as the compound, how does the activity change read?
**A.** The activity change was inactive: -9.5%.

**Q.** Which activity change does the source give for O=C(Nc1ccncc1[N+](=O)[O-])c1ccc([N+](=O)[O-])cc1[N+](=O)[O-] here?
**A.** Its activity change is active: -98.7%.

**Q.** With O=C(COc1ccccc1)OC1CN2CCC1CC2 (centres undefined) as the compound, how does the activity change read?
**A.** The activity change was inactive: 6.24%.

**Q.** Which activity change does the source give for CCOC(=O)Nc1cccc([As](=O)(O)O)c1 here?
**A.** The activity change was inactive: -28.9%.

**Q.** Which activity change does the source give for O=[N+]([O-])c1ccc(Nc2ccc(Oc3ccc([N+](=O)[O-])cc3[N+](=O)[O-])cc2)c([N+](=O)[O-])c1 here?
**A.** The activity change was inactive: -28.7%.

**Q.** With O=P(Nc1ccccn1)(c1cccc2ccccc12)c1cccc2ccccc12 as the compound, how does the activity change read?
**A.** The activity change was inactive: -15.8%.

**Q.** Which activity change does the source give for CC1CCNP(=O)(N(CCCl)CCCl)O1 (centres undefined) here?
**A.** Its activity change is inactive: -4.45%.

**Q.** Which activity change does the source give for CCOC(=O)Nc1ccc([As](=O)(O)O)c(O)c1 here?
**A.** Its activity change is inactive: -10.9%.

**Q.** Which activity change does the source give for Cc1cc(SC(NC(=O)c2ccccc2)C(Cl)(Cl)Cl)nc(C(C)C)n1 (centres undefined) here?
**A.** The activity change was inactive: -11.4%.

**Q.** Which activity change does the source give for CCCCOc1ccc(C(=O)NCC2(N3CCCCC3)CCCCC2)cc1OC here?
**A.** The activity change was inactive: -21%.

**Q.** For CC(C)c1ccc(OP(=O)(Nc2ccccn2)Oc2ccccc2F)cc1 (centres undefined), which activity change is on record?
**A.** The activity change was inactive: 20.7%.

**Q.** Which activity change does the source give for COC(=O)C1(C)COP(=O)(N2CCCCCC2)OC1 (centres undefined) here?
**A.** Its activity change is inactive: -6.45%.

**Q.** For ClCCSc1nnc(-c2cccnc2)o1, which activity change is on record?
**A.** Its activity change is inactive: -13.9%.

**Q.** With O=[N+]([O-])c1cc([N+](=O)[O-])c(-c2ccn[nH]2)s1 as the compound, how does the activity change read?
**A.** The activity change was active: -97%.

**Q.** Which activity change does the source give for O=C(OC1CN2CCC1CC2)c1cccc2[nH]cnc12 (centres undefined) here?
**A.** Its activity change is inactive: 15%.

**Q.** Which activity change does the source give for CCN(CC)C(=S)SC(NC=O)C(Cl)(Cl)Cl (centres undefined) here?
**A.** The activity change was inactive: 27.6%.

**Q.** Which activity change does the source give for CC(C)NC(=O)NP(=O)(Oc1ccccc1)Oc1ccccc1 here?
**A.** Its activity change is inactive: 18.7%.

**Q.** Which activity change does the source give for COc1cc(C(=O)NCC2(N3CCOCC3)CCCCC2)ccc1OCC(C)C here?
**A.** Its activity change is inactive: -27%.

**Q.** For O=[N+]([O-])c1ccc(-c2cc([N+](=O)[O-])c(O)c([N+](=O)[O-])c2)cc1, which activity change is on record?
**A.** The activity change was inactive: -6.05%.

**Q.** Which activity change does the source give for C[As](=O)(O)c1cccc(C(=O)O)c1 here?
**A.** The activity change was inactive: 0.0246%.

**Q.** For O=[As](O)(c1ccc(O)cc1)c1ccccc1O, which activity change is on record?
**A.** The activity change was inactive: -23.9%.

**Q.** With Cc1ccc2nc3c(c(C)c2c1)CC(C(Cl)Cl)S3 (centres undefined) as the compound, how does the activity change read?
**A.** Its activity change is inactive: 19.6%.

**Q.** With Cc1ccc(OP(=O)(Nc2ccc([N+](=O)[O-])cn2)Oc2ccc(C)cc2)cc1 as the compound, how does the activity change read?
**A.** Its activity change is inactive: 20.1%.

**Q.** For COc1ccc(N/C(=N/P(=O)(N2CCOCC2)N2CCOCC2)N2CCOCC2)cc1, which activity change is on record?
**A.** Its activity change is inactive: -16.4%.

**Q.** For O=[N+]([O-])c1cc(Oc2ccc([N+](=O)[O-])cc2C(F)(F)F)cc([N+](=O)[O-])c1, which activity change is on record?
**A.** The activity change was inactive: 2.54%.

**Q.** For Cc1cc(=O)[nH]c(N[N+](=O)[O-])n1, which activity change is on record?
**A.** The activity change was inactive: -1.8%.

**Q.** For O=C(OC1CN2CCC1CC2)C12CC3CC(CC(C3)C1)C2 (centres undefined), which activity change is on record?
**A.** The activity change was inactive: 19.2%.

**Q.** For Cc1c2c(nc3ccccc13)SC(C(Cl)Cl)C2 (centres undefined), which activity change is on record?
**A.** Its activity change is inactive: -29.7%.

**Q.** For COc1cc(I)ccc1[As](=O)(O)O, which activity change is on record?
**A.** The activity change was active: -81.4%.

**Q.** With COc1ccc2nc(NP(=O)(c3ccccc3)c3ccccc3)sc2c1 as the compound, how does the activity change read?
**A.** Its activity change is inactive: -9.02%.

**Q.** Which activity change does the source give for O=P1(N(CCCl)CCCl)OCCCN1CCCl (centres undefined) here?
**A.** The activity change was inactive: -3.23%.

**Q.** With O=P1(N(CCCl)CCCl)Nc2ccccc2N1 as the compound, how does the activity change read?
**A.** The activity change was inactive: -4.37%.
